Values of other authors as cited in article PMC6261293 (European journal of medicinal chemistry, 2018).

The chains behind the UniProt entries cited, without tags or fusion partners. Where a name states a change or a piece, a line headed by the entry shows the natural chain unless it says otherwise.
UniProt P45983: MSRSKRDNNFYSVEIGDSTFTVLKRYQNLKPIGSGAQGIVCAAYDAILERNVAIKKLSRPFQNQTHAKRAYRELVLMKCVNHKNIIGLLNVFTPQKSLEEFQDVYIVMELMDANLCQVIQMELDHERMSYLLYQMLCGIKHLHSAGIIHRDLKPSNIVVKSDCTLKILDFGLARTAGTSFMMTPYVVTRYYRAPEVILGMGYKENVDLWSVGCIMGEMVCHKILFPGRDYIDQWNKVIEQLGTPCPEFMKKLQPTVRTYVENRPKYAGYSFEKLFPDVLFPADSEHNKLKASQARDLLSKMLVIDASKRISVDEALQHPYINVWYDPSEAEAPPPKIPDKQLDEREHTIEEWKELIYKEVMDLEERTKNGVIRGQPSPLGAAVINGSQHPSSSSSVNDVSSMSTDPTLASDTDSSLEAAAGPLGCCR
UniProt P53779: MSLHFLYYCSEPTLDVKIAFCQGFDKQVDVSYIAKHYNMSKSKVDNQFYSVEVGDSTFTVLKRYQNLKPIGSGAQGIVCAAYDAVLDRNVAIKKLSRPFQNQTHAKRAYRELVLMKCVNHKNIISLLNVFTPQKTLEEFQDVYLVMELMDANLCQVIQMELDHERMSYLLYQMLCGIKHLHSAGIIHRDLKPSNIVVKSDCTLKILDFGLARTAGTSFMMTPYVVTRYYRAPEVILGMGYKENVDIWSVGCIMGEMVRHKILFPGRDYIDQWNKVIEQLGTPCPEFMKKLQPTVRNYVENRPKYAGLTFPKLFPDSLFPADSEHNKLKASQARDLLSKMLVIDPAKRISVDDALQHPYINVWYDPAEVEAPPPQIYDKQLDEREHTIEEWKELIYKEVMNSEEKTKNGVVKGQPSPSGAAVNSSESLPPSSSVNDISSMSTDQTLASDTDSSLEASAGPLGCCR

What was measured:
JNK1 = JNK1 (Homo sapiens, UniProt P45983); conditions: read-out: JNK1 Kd; known JNK inhibitors; ref [29]; cited from earlier work
JNK3 = JNK3 (Homo sapiens, UniProt P53779); conditions: read-out: JNK3 Kd; known JNK inhibitors; ref [29]; cited from earlier work

In the case of “anthra[1–9-cd]pyrazol-6(2H)-one [SP600125]”, the Kd (JNK1) is given as 0.1 ± 0.043 µM and the Kd (JNK3) is given as 0.022 ± 0.009 µM.
